Chains of the proteins cited; added tags and fusions are not shown.
UniProt P30542, whole entry: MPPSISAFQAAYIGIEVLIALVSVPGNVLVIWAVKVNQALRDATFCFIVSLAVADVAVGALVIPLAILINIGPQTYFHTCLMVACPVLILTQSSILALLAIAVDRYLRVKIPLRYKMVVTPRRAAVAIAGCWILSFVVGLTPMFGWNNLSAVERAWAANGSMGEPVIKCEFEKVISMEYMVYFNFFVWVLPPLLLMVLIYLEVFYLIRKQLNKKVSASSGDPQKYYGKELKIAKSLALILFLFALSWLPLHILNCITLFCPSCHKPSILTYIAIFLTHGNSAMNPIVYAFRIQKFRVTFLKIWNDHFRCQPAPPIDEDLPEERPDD
UniProt P0DMS8, whole entry: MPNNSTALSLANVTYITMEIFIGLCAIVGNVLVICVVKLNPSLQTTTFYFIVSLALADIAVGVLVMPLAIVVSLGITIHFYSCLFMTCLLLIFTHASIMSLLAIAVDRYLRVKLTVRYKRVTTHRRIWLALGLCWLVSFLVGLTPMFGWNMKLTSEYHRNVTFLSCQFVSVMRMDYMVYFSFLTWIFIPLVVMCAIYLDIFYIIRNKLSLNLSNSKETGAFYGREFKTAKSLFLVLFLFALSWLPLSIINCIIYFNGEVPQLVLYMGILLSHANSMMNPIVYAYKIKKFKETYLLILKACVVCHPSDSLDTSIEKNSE

According to patent US6686366B1, “Compounds specific to adenosine A3 receptor and uses thereof” (OSI Pharmaceuticals, Inc., priority 1998, dated 2004):

Experiments:
[1] = target: human adenosine A1 receptor (Homo sapiens, UniProt P30542); experiment: Yeast β-Galactosidase reporter gene assay, inhibition of NECA-induced activity, strain CY12660; conditions: for IC50: A1 Yeast IC50 (nM)
[2] = target: T1, human A2b receptor subtype (Homo sapiens, UniProt P29275); experiment: Adenosine 2b receptor subtype competition radioligand binding, [3H]DPCPX, HEK293 membranes; conditions: Table 13
T1 construct: expressed in transfected cells; host or cells: HEK293, membranes
T1 sequence (P29275 1-332): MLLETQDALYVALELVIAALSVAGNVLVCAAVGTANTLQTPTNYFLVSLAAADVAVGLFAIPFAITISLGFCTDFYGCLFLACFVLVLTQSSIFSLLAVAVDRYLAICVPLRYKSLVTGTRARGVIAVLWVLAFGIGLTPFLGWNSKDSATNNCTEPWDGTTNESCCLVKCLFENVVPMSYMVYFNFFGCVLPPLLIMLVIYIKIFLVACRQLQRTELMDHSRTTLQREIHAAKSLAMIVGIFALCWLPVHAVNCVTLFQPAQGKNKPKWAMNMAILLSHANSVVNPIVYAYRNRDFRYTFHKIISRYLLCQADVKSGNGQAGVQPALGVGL

[3] = target: human A1 receptor subtype (Homo sapiens, UniProt P30542); experiment: biochemical
[4] = target: T2, human A2a receptor subtype (Homo sapiens, UniProt P29274); experiment: Adenosine 2a receptor subtype competition radioligand binding, [3H]CGS-21680, HEK293 membranes; conditions: Table 13
T2 construct: expressed in transfected cells; host or cells: HEK-293 (Cadus clone #5), membranes

[5] = target: human A3 receptor subtype (Homo sapiens, UniProt P0DMS8); experiment: Adenosine 3 receptor competition radioligand binding, [125I]AB-MECA, HEK293 membranes
[6] = A1 Binding Ki (nM), Table 11, Effect of N6-Substituent
[7] = A1 Binding Ki (nM), Table 12, Retro-Amide Analogues
[8] = Table 12, Retro-Amide Analogues
[9] = Table 11, Effect of N6-Substituent

Row | Structure (SMILES) | Ki [2] | Ki ([3]; Binding Ki (nM) A1, Table 13) | Ki [4] | pKi [5] | further results
1 | CC(=O)NCCNc1nc(-c2ccccc2)nc2[nH]c(C)c(C)c12 [Compound 1002] | – | – | – | – | IC50 ([1]; Table 10, Effect of N6-Substituent): 82.8 nM
2 | CNC(=O)NCCCCNc1nc(-c2ccccc2)nc2[nH]c(C)c(C)c12 [Compound 1312] | 375 nM | 443 nM | 2960 nM | – | –
3 | CNC(=O)NCCCNc1nc(-c2ccccc2)nc2[nH]c(C)c(C)c12 [Compound 1310] | 275 nM | 255 nM | – | – | –
4 | CC(=O)NC[C@H](C)Nc1nc(-c2ccccc2)nc2[nH]c(C)c(C)c12 [Compound 1109] | – | – | – | – | Ki [3, 6]: 9 nM
5 | Cc1[nH]c2nc(-c3ccccc3)nc(NCCC(=O)O)c2c1C [Compound 1204] | – | – | – | – | Ki [3, 7]: 1060 nM
6 | Cc1[nH]c2nc(-c3ccccc3)nc(NCC(N)=O)c2c1C [Compound 1206] | – | – | – | – | IC50 [1, 8]: 4030 nM; Ki [3, 7]: 50.8 nM
7 | CNC(=O)NCCNc1nc(-c2ccccc2)nc2[nH]c(C)c(C)c12 [Compound 1302] | 20.1 nM | 20.2 nM | 75.6 nM | 8.37 | –
8 | CC(=O)NCC(C)Nc1nc(-c2ccccc2)nc2[nH]c(C)c(C)c12 (stereo not drawn) [Compound 1301] | 84.6 nM | – | 50.7 nM | 6.37 | –
9 | CC(=O)NCC(C)Nc1nc(-c2ccccc2)nc2[nH]c(C)c(C)c12 (stereo not drawn) [Compound 1106] | – | – | – | – | IC50 [1, 9]: 162 nM
10 | Cc1[nH]c2nc(-c3ccccc3)nc(NCC(C)NC(=O)OC(C)C)c2c1C (stereo not drawn) [Compound 1105] | – | – | – | – | pIC50 [1]: 6.33; pKi [3]: 6.98
11 | CC(=O)NC1CCCN(c2nc(-c3ccccc3)nc3[nH]c(C)c(C)c23)C1 (stereo not drawn) [Compound 1309] | 109 nM | 40 nM | 109 nM | 9.52 | –
12 | CC(=O)NCCNc1nc(-c2ccccc2)nc2[nH]c(C)c(C)c12 [Compound 1300] | 80.3 nM | – | – | 6.29 | –
13 | CNC(=O)CCNc1nc(-c2ccccc2)nc2[nH]c(C)c(C)c12 [Compound 1303] | 121 nM | 17.4 nM | 111 nM | 7.35 | –
14 | CCNC(=O)NCCNc1nc(-c2ccccc2)nc2[nH]c(C)c(C)c12 [Compound 1103] | – | – | – | – | IC50 [1, 9]: 3220 nM; Ki [3, 6]: 71.1 nM
15 | CC(=O)NCCNc1nc(-c2ccccc2)nc2[nH]c(C)c(C)c12 [Compound 1100] | – | – | – | – | IC50 [1, 9]: 115 nM
16 | CNC(=O)CCNc1nc(-c2ccccc2)nc2[nH]c(C)c(C)c12 [Compound 1201] | – | – | – | – | IC50 [1, 8]: 45.7 nM; Ki [3, 7]: 7.4 nM
17 | CCNC(=O)NCCNc1nc(-c2ccccc2)nc2[nH]c(C)c(C)c12 [Compound 1314] | 30 nM | 87 nM | 204 nM | 10.70 | –
18 | CNC(=O)NCCNc1nc(-c2ccccc2)nc2[nH]c(C)c(C)c12 [Compound 1102] | – | – | – | – | IC50 [1, 9]: 101 nM; Ki [3, 6]: 10.3 nM
19 | CC(=O)NCCCCNc1nc(-c2ccccc2)nc2[nH]c(C)c(C)c12 [Compound 1311] | – | – | 981 nM | – | –

pIC50, pKi: −log10 of the molar value. Where two headings read alike, the source gives them in different places.
